Assay results as given in US8231900B2.

Columns and labels:
[1] = Human clinical PK study of sublingual sufentanil NanoTabs vs IV sufentanil in healthy volunteers; details: IV 5 mcg infusion over 10 min
[2] = PK of sublingual sufentanil NanoTab (formulation #44) vs IV sufentanil in Beagle dog model; details: IV 5 mcg
[3] = PK of sublingual sufentanil solution and swallowed sufentanil NanoTab vs IV sufentanil in Beagle dogs; details: Beagle dog; for Therapeutic Plateau Ratio (TTR): literature IV half-life 139 min
[4] = beagle dogs; cited from earlier work
[5] = PK of sublingual alfentanil NanoTab (#63) vs IV alfentanil in Beagle dogs; details: Beagle dog
[6] = PK of sublingual fentanyl NanoTabs (#60, #62) vs IV fentanyl in Beagle dogs; details: Beagle dog
[7] = sublingually instilled solution 5 μg

**Q.** With `CCC(=O)N(c1ccccc1)C1(COC)CCN(CCc2cccs2)CC1` as the molecule, how does the “Plasma Elimination Half-life” value [1] read?
**A.** 71.4 ± 10.8 min

**Q.** What about the “AUC (hr*ng/ml) (mean ± SD)” value ([1]; n=12) of the same molecule?
**A.** 0.0368 ± 0.0076 ng·h/mL

**Q.** What about the Cmax [2] of the same molecule?
**A.** 0.5367 ± 0.1861 ng/mL

**Q.** And the “Plasma Half-life” value [2]?
**A.** 10.3 ± 4.5 min

**Q.** And the Tmax [2]?
**A.** 1.6 ± 0.6 min

**Q.** What about the AUC (Mean ± SD) ([2]; n=3) of the same molecule?
**A.** 0.211 ng·h/mL

**Q.** And the Cmax ([3]; IV bolus 5 μg)?
**A.** 0.5367 ± 0.1861 ng/mL

**Q.** What about the “Plasma Half-life” value ([3]; IV bolus 5 μg) of the same molecule?
**A.** 2.8 ± 0.4 min

**Q.** And the “Therapeutic Plateau Ratio (TTR)” value ([3]; IV bolus 5 μg, listed as IV sufentanil)?
**A.** 0.03

**Q.** What about the “Therapeutic Plateau Ratio (TTR)” value ([3]; IV bolus 5 μg, listed as Intravenous Sufentanil) of the same molecule?
**A.** 0.02 ± 0.0

**Q.** And the Cmax [3, 7]?
**A.** 0.2364 ± 0.17 ng/mL

**Q.** What about the “Plasma Half-life” value [3, 7] of the same molecule?
**A.** 8.3 ± 4.5 min

**Q.** What about the Tmax [3, 7] of the same molecule?
**A.** 4.3 ± 1.0 min

**Q.** And the AUC (Mean ± SD) ([3]; sublingually instilled solution 5 μg, n=6)?
**A.** 0.0583 ng·h/mL

**Q.** What about the “Therapeutic Plateau Ratio (TTR)” value [3, 7] of the same molecule?
**A.** 0.06

**Q.** And the “Therapeutic Plateau Ratio (TTR)” value ([3]; sublingually instilled solution 5 μg, listed as Sublingual Sufentanil solution)?
**A.** 0.04 ± 0.02

**Q.** What about the “F1 (%) oral (GI) bioavailability” value ([3]; swallowed (oral) 5 mcg NanoTab) of the same molecule?
**A.** 12%

**Q.** For `CCC(=O)N(c1ccccc1)C1(COC)CCN(CCn2nnn(CC)c2=O)CC1`, which “published IV terminal elimination half-life” value [4] is on record?
**A.** 104 min

**Q.** And the Cmax ([5]; IV 253 μg)?
**A.** 139.1 ± 76.4 ng/mL

**Q.** And the AUC (Mean ± SD) ([5]; IV 253 μg alfentanil base, n=3)?
**A.** 15.3 ng·h/mL

**Q.** With `CCC(=O)N(c1ccccc1)C1CCN(CCc2ccccc2)CC1` as the molecule, how does the Cmax ([6]; IV bolus 70 μg) read?
**A.** 7.8959 ± 6.096 ng/mL

**Q.** What about the AUC (Mean ± SD) ([6]; IV bolus 70 μg fentanyl base (Sublimaze), n=3) of the same molecule?
**A.** 3.16 ng·h/mL

Only a part of the results on these compounds is given; other tests are left out.
